Data from patent publication WO2019030706A1 (dated 2019).

Experiments:
Assay in all cases: not stated (summary of nonclinical pharmacology)
[1] = target: monkey thrombin (monkey)
[2] = target: mouse thrombin (mouse, UniProt P19221 312-618)
[3] = target: mature human thrombin (human, UniProt P00734 314-363; P00734 364-622)

Measured: Kd

B1: JNJ-64179375, recombinant fully human IgG4 monoclonal anti-thrombin (exosite 1) antibody (antibody, V domains shown)
VH: QVQLIQSGSAVKKPGASVRVSCKVSGYTLTEAAIHWVRQAPGKGLEWMGGLDPQDGETVYAQQFKGRVTMTEDRSTDTAYMEVNNLRSEDTATYYCTTGDFSEFEPFSMDYFHFWGQGTVVTVAS
VL: EIVLTQSPATLSLSPGERATLSCRASQNVASFLAWYQHKPGQAPRLLIYDASSRATDIPIRFSGSGSGTDFTLTISGLEPEDFAVYYCQQRRSWPPLTFGGGTKVEIKR
< 2 nM: all assays above
